Ab-91 heavy chain CDR variants: yeast mating affinities

Reference: Engelhart et al. 2022, doi:10.1038/s41597-022-01779-4. File: FLAb, binding data.

All variants were tested on one target, the spike HR2 peptide PDVDLGDISGINAS (SARS-CoV-2).

Each scFv is VL, a (GGGGS)3 linker, VH, as in the parent Ab-91, and differs from it in the CDRs of the heavy chain only.
VL: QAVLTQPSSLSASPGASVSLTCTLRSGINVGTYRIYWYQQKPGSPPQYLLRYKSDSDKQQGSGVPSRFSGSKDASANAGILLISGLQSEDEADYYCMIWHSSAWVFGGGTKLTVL
VH: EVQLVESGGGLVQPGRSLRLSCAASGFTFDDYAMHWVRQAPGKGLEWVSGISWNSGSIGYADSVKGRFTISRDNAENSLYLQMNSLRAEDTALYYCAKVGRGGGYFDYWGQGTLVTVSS

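The starting antibody came from a phage panning campaign against this peptide. Library AAYL51 holds single substitutions and randomly drawn double and triple substitutions in the CDRs. The assay is AlphaSeq: two haploid yeast populations carry antibody and antigen on their surface. Mating (16 h, 30 °C) was followed by selection of diploids and sequencing of their barcodes. The ratio of observed to expected reads was calibrated, replicate by replicate, on BCL2-family standards whose Kd was known from biolayer interferometry. The assay was run in three technical replicates.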

Substitutions are numbered in sequence along the VH above, starting at 1 (not Kabat).
Every variant below is changed at V64 of the VH (sequential numbering).
Scale: log10 of Kd in nM, estimated from mating counts; low values are strong binders.
Replicates are averaged; those with no signal do not enter the mean.
"nd" marks a missing value. The strain was present, yet no cells mated with the target were sequenced in any replicate, which points to weak or no binding.
In this assay the parent's reference entry averaged 1.86; its copy inside this library read 0.88.
As a blank, each scFv also met three strains without target: over library AAYL51, 21% of these pairings were detected, typically at 4.54 and seldom below 3.26.

With V64C D107C the result was 4.69 (2 of 3 replicates). With G26F G59N V64F the result was 4.73 (3 of 3 replicates). With H35W V64G the result was nd (0 of 3 replicates). The variant F27D V64Q K65E gave nd (0 of 3 replicates). With S55K A61Q V64L the result was 4.38 (2 of 3 replicates). For G26V S52G V64H, the assay gave nd (0 of 3 replicates). For F27W G56Q V64W, the assay gave 4.99 (1 of 3 replicates). The variant F27H Y60V V64R gave 3.97 (1 of 3 replicates). The variant Y60L V64M gave 4.52 (3 of 3 replicates).

With G50F V64R Y108E the result was 5.22 (2 of 3 replicates). For G56V V64K V99C, the assay gave nd (0 of 3 replicates). The variant V64D G104Q gave 3.83 (2 of 3 replicates). The variant Y32W A61H V64H showed nd (0 of 3 replicates). The variant G26T V64S G102K gave nd (0 of 3 replicates). The variant I51M V64N D107C showed nd (0 of 3 replicates). With M34W Y60I V64Y the result was 3.73 (1 of 3 replicates). For Y60A S63P V64L, the assay gave 4.51 (1 of 3 replicates). For S57F V64S Y108V, the assay gave 2.73 (3 of 3 replicates).

With D30S S55C V64Q the result was nd (0 of 3 replicates). The variant V64D R101S F106I showed nd (0 of 3 replicates). The variant S52E V64Q R101W showed nd (0 of 3 replicates). The variant S52N I58A V64N showed nd (0 of 3 replicates). For G26C Y60S V64T, the assay gave nd (0 of 3 replicates). For F27H D30K V64Q, the assay gave 5.00 (1 of 3 replicates). The variant S57G A61I V64L gave 4.05 (1 of 3 replicates). With V64A V99P G100Q the result was nd (0 of 3 replicates). The variant G50A G59L V64A gave nd (0 of 3 replicates).

For N54R V64L V99G, the assay gave 4.66 (1 of 3 replicates). With M34H H35C V64M the result was nd (0 of 3 replicates). With N54E G59I V64L the result was nd (0 of 3 replicates). The variant I51S V64T K65W showed 4.95 (2 of 3 replicates). The variant S52V V64T F106I gave 4.19 (1 of 3 replicates). For Y60K D62K V64H, the assay gave 3.66 (2 of 3 replicates). With Y32E V64C G104C the result was nd (0 of 3 replicates). For Y32S D62G V64L, the assay gave 4.05 (2 of 3 replicates). With V64Q R101M the result was nd (0 of 3 replicates).

For V64C Y105N Y108F, the assay gave 4.68 (2 of 3 replicates). With Y32V V64F the result was nd (0 of 3 replicates). The variant Y60H V64E D107L gave nd (0 of 3 replicates). With F27P S57F V64R the result was 3.14 (1 of 3 replicates). With F27E D31V V64Q the result was nd (0 of 3 replicates). With Y32D Y60M V64R the result was nd (0 of 3 replicates). With Y60N V64H Y108D the result was nd (0 of 3 replicates). With V64L G103S the result was nd (0 of 3 replicates). With D31S G56C V64K the result was nd (0 of 3 replicates).

The variant S52H W53T V64P showed nd (0 of 3 replicates). For Y60K V64C Y105L, the assay gave nd (0 of 3 replicates). For I51A V64K, the assay gave 5.36 (3 of 3 replicates).

Extract of 3 entries:

For S52V V64T F106I, the assay gave 4.19 (1 of 3 replicates).
For G56V V64K V99C, the assay gave nd (0 of 3 replicates).
For F27E D31V V64Q, the assay gave nd (0 of 3 replicates).